Earlier results in patent US10537521B2 (priority 2016, dated 2020).

By UniProt entry, the sequences of proteins in these tests, tags left out.
UniProt P35372, whole entry: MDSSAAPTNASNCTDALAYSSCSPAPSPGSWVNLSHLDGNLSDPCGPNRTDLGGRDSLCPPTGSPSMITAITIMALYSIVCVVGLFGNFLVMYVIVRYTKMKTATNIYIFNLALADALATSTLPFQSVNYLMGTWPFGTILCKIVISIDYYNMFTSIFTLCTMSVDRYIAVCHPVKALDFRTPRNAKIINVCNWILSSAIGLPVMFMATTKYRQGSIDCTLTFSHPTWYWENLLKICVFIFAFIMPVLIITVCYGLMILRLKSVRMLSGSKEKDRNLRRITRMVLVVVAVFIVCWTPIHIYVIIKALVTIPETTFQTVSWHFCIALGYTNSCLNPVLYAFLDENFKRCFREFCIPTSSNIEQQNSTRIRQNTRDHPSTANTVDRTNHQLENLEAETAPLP

Target: μ-opioid (Homo sapiens, UniProt P35372)
Conditions: cited from earlier work

Q: Which μ-opioid activity does the source give for (+)-O-desmethyltramadol [(+)-M1] here?
A: The μ-opioid activity was “significant μ-opioid activity”.
